{"source": "PubChem BioAssay AID624291", "about": "(National Center for Advancing Translational Sciences (NCATS), 2012)", "note": "Only a part is listed here, and it is no random draw. Results filed as inconclusive are left out. The source made the active and inactive calls. Calls follow the shape of the dose curve; as a rule, active = well fitted activation curve with a large enough effect; inconclusive = small, poorly fitted or top-dose-only effect; inactive = no such curve, though single readings can be large or run the other way."}
{"test": "qHTS for Activators of Integrin-Mediated Alleviation for Muscular Dystrophy;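 also: 100% = response of the positive control SU9516; nearly all actives have a fitted effect of over 60% in size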", "details": "alpha7betagal myoblasts, beta-gal FDG fluorescence, 48 h; at 38.3 µM (top of the series)"}
{"smiles": "COc1cc(C2NCCC3(OCCO3)C2(C)C)cc(OC)c1OC.O=[N+]([O-])c1cc([N+](=O)[O-])c(O)c([N+](=O)[O-])c1", "note": "(stereo unspecified)", "activation": "inactive: 2.37%"}
